Data reported in PMC5833756, “A novel ruthenium complex with xanthoxylin induces S-phase arrest and causes ERK1/2-mediated apoptosis in HepG2 cells through a p53-independent pathway” (Cell Death & Disease, 2018).

Test system: AGP-01
Details: IC50 HaCAT / IC50 AGP-01

## COc1cccc2c1C(=O)c1c(O)c3c(c(O)c1C2=O)C[C@@](O)(C(=O)CO)C[C@@H]3O[C@H]1C[C@H](N)[C@H](O)[C@H](C)O1 [DOX, doxorubicin]
  selectivity index (SI): 0.1
